# NALP1 inh – blocks the NALP1 inflammasome reconstituted in yeast. 280,000 tested, 0.61% active. S. cerevisiae NALP1/ASC/caspase-1 growth, X-gal OD620, 72 h. AID 2071. inhibition, % at 10 µM; in the data active = inhibition mostly above about 24%, no sharp cut-off; inactive = mostly below about 32%
# UUG fidelity – modulators of start codon recognition fidelity in yeast. S. cerevisiae UUG-firefly luciferase reporter, luminescence/redox ratio. activity score, % at 18.7 µM. 350,000 tested, 0.13% active;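 active = replicate mean at a twofold rise or more, about +100% in these data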;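 note: firefly luciferase made from a UUG start codon reports start codon fidelity; reporter light over untreated wells divided by growth signal over untreated wells; some hits fall short of that in this replicate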
# MC4R antag cAMP – antagonists of human melanocortin 4 receptor (MC4R); P32245; MC4R-expressing cells, MTII-stimulated cAMP, LANCE TR-FRET; inhibition, % at 6.5 µM; 360,000 tested, 0.48% active; AID 540295;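 active = inhibition above its plate's cutoff, the mean of tested wells on that plate plus 3 SD, cut at about 29% in these data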;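 also: 0% = Melanotan II alone and 100% = Melanotan II plus saturating MCL0020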
#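 Material: human MC4R-expressing U2OS cells. Probe or stimulus: Melanotan II challenge. Dosing: 6.5 µM single dose. Times: 30-min compound, 1-h challenge, 1-h detection, room temperature. Technique: TR-FRET with Eu-cAMP and labeled anti-cAMP, 671 nm. Replication: singlicate.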
# MC4R ag barr – activates human MC4R beta-arrestin recruitment | P32245 | U2OS MC4R beta-arrestin complementation, luminescence; percent of melanotan II response, DMSO zero | activation, % at 8.9 µM | 360,000 tested, 0.98% active;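 active = activation above a per-plate cutoff, the mean activation of sample wells on that plate plus 3 SD, cut at about 8% in these data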
# HDAC3 inh – inhibitors of human histone deacetylase 3; O15379; AID 2718; recombinant HDAC3, fluorogenic peptide/trypsin coupled, fluorescence; inhibition, % at 8.3 µM; 320,000 tested, 0.15% active; in the data active = inhibition above about 26%, passing the limit was not always enough; inconclusive = no clear call, values can overlap the other calls
# ALR inh – inhibitors of human sulfhydryl oxidase ALR. P55789. purified ALR, DTT oxidation, H2O2 HRP-luminol luminescence. inhibition, % (concentration not given with the values). actives 3.8% (n = 290,000);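 active = mean and each replicate at 75% or more; inconclusive = only one of the two met; inactive = neither met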;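 also: stock transfer was 7.5 nL into about 7.5 µL; 0% = neutral wells and 100% = wells with inactivated enzyme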
# * hit, by the source's call; u = inconclusive; x = not tested or not shown. Rows were chosen to be rich in hits. Some 4.2% of all compounds tested hit in one or more screens of this group.
SMILES | NALP1 inh | UUG fidelity | MC4R antag cAMP | MC4R ag barr | HDAC3 inh | ALR inh
COc1ccc(NC2CCCN(C(=O)CN3C(=O)c4ccccc4C3=O)C2)cc1OC (stereo not given) | 2 | -2 | 4 | -1 | 2 | 98*
COc1ccc(NC2CCCN(C(=O)CSc3ccccn3)C2)cc1OC (stereo not given) | 0 | -15 | 10 | -1 | 7 | 99*
COc1ccc(NC2CCCN(Cc3cccc4cnccc34)C2)cc1OC (stereo not given) | -52 | -7 | 0 | -1 | 1 | 95*
Cc1ccc(S(=O)(=O)Nc2ccc3c(c2)CC(=O)N([C@@H](C)CO)C[C@H](C)[C@H](CN(C)C(=O)NC(C)C)O3)cc1 | x | -5 | x | x | x | x
O=C1OC(Nc2ccc3c(c2)OCO3)c2ccccc21 (stereo not given) | -12 | -17 | 6 | -2 | -1 | 99*
O=C1c2ccccc2C(Nc2ccc3c(c2)OCCO3)N1Cc1ccc2c(c1)OCO2 (stereo not given) | 27 | -25 | 5 | 1 | -1 | 98*
O=C1c2ccccc2C(Nc2ccccc2)N1Cc1ccc2c(c1)OCO2 (stereo not given) | x | x | 13 | -1 | -6 | 7
Cc1sc(NC(=O)CSc2nc(O)cc(=O)[nH]2)nc1-c1ccccc1 | -16 | x | -7 | -1 | -6 | 99*
CCOC(=O)Cc1csc(NC(=O)CSc2nc(-c3ccccc3)c(C#N)c(=O)[nH]2)n1 | -5 | x | 12 | 1 | 8 | 98*
Nc1cc(=O)[nH]c(SCC(=O)Nc2nnc(-c3ccccc3)s2)n1 | 17 | x | 0 | 1 | 4 | 18
COc1cccc(-c2nc(SCC(=O)Nc3nc(-c4ccccc4)c(C)s3)[nH]c(=O)c2C#N)c1 | -14 | x | 9 | -1 | 7 | 99*
O=C(Oc1ccc(/C=N/O)cc1)c1ccccc1Cl | -3 | x | 2 | 1 | 0 | 99*
Oc1[nH]c2ccccc2c1C1=NCCCC1 | 16 | -17 | 0 | 0 | 16 | 98*
O=C(NNC(=S)Nc1ccccc1Cl)c1ccccc1 | 3 | -26 | 4 | -5 | -1 | u
O=C(/C=C/c1ccco1)NC(=S)Nc1ccccc1N1CCCC1 | 3 | x | -1 | 1 | 6 | 4
O=C(/C=C/c1ccco1)Nc1ccccc1N1CCCC1 | 8 | x | 10 | -1 | -2 | 99*
O=C(NNC(=S)Nc1ccccc1Cl)c1ccccc1Cl | 4 | -34 | 4 | -3 | 0 | 90*
O=C(Cc1ccc(F)cc1)Nc1ccccc1N1CCCC1 | -1 | 2 | 2 | 2 | 1 | 89*
O=C(Nc1ccccc1N1CCCC1)c1ccco1 | 5 | -24 | 3 | 1 | 12 | 43
O=C(Nc1ccccc1N1CCCCC1)c1ccco1 | 9 | -12 | 1 | -2 | 6 | 97*

# Quoted at random: two entries already listed.
SMILES | NALP1 inh | UUG fidelity | MC4R antag cAMP | MC4R ag barr | HDAC3 inh | ALR inh
Cc1sc(NC(=O)CSc2nc(O)cc(=O)[nH]2)nc1-c1ccccc1 | -16 | x | -7 | -1 | -6 | 99*
O=C(Nc1ccccc1N1CCCC1)c1ccco1 | 5 | -24 | 3 | 1 | 12 | 43

# Next records:
SMILES | NALP1 inh | UUG fidelity | MC4R antag cAMP | MC4R ag barr | HDAC3 inh | ALR inh
CO[C@@H]1CN(C)C(=O)c2cc(NC(=O)c3cc(C)on3)ccc2OC[C@@H](C)N(S(=O)(=O)c2cccc(F)c2)C[C@H]1C | x | -1 | x | x | x | x
O=C(NC(=S)Nc1ccc(N2CCCC2)cc1)c1ccccc1[N+](=O)[O-] | 16 | -9 | 2 | 3 | 13 | -2
O=C(Nc1ccccc1N1CCCC1)c1ccc(Cl)cc1Cl | -4 | x | 3 | 0 | 0 | 15
O=C(Nc1ccccc1N1CCCC1)c1ccccc1Cl | 2 | -13 | -3 | 1 | 0 | 99*
O=C(NC(=S)N1CCN(c2ccc(O)cc2)CC1)c1ccco1 | x | -17 | 4 | -3 | 1 | 99*
O=C(NC(=S)Nc1ccccc1N1CCCC1)c1ccccc1[N+](=O)[O-] | 11 | x | 8 | 0 | 5 | 98*
O=C(Nc1ccccc1N1CCCCC1)c1cccs1 | 7 | x | 1 | 2 | 3 | 11
Cc1ccsc1C(=O)Nc1ccccc1N1CCCC1 | x | 74 | -4 | 0 | 5 | 99*
O=C(NC(=S)N1CCN(c2ccc([N+](=O)[O-])cc2)CC1)c1ccco1 | 25 | -15 | 10 | -1 | 5 | -5
COc1ccc(S(=O)(=O)N(C)C[C@H]2OCCCC[C@H](C)Oc3ccc(NC(=O)c4ccccc4)cc3C(=O)N([C@H](C)CO)C[C@H]2C)cc1 | x | -13 | x | x | x | x
C[C@@H]1CN([C@@H](C)CO)C(=O)c2cc(NC(=O)CCC(F)(F)F)ccc2O[C@@H](C)CCCCO[C@@H]1CN(C)C(=O)Nc1ccc2c(c1)OCO2 | x | 5 | x | x | x | x
Cc1ccc(S(=O)(=O)N(C)C[C@H]2OCCCC[C@@H](C)Oc3ccc(N(C)C)cc3C(=O)N([C@@H](C)CO)C[C@H]2C)cc1 | x | 17 | x | x | x | x
O=C(Nc1ccccc1N1CCCC1)c1ccc(Br)o1 | 1 | -26 | 0 | 0 | -8 | 98*
O=C(NCC(=O)N1CCN(c2ccccc2O)CC1)c1ccc(Br)o1 | x | -9 | -1 | 0 | -1 | 99*
CC(=O)N1CCN(c2ccccc2NC(=O)c2ccc(Br)o2)CC1 | 6 | 5 | 5 | -4 | -2 | x
O=C(O)/C=C\C(=O)Nc1ccccc1N1CCN(c2ccccc2)CC1 | x | -5 | 6 | 0 | 9 | 98*
O=C(NC(=S)Nc1ccccc1N1CCOCC1)c1ccco1 | 24 | x | 9 | 2 | -6 | 96*
C[C@@H]1CN([C@@H](C)CO)C(=O)c2cc(-c3cccc(C(=O)N(C)C)c3)cnc2O[C@@H]1CN(C)S(=O)(=O)c1ccccc1 | x | -2 | x | x | x | x
COc1ccc(C#Cc2ccc3c(c2)[C@]2(C(=O)N3)[C@H](c3ccc(OCCO)cc3)N3[C@H](c4ccccc4)[C@H](c4ccccc4)OC(=O)[C@H]3[C@@H]2C(=O)N2CCCCCCC2)cc1 | x | -14 | x | x | x | x
Cc1cccc(C(=O)Oc2ccccc2/C=N/Nc2ccc([N+](=O)[O-])cc2)c1 | 15 | -17 | 9 | 9.2* | -16 | -3

# (cont.)
SMILES,NALP1 inh,UUG fidelity,MC4R antag cAMP,MC4R ag barr,HDAC3 inh,ALR inh
O=[N+]([O-])c1ccc(N/N=C/c2cccc(O)c2O)cc1,14,-10,-1,-5,9,6
COc1ccc(-c2cnc3c(c2)C(=O)N([C@H](C)CO)C[C@@H](C)[C@@H](CN(C)Cc2ccc(C(=O)O)cc2)O3)cc1,x,-1,x,x,x,x
S=C(NN=C(C1CC1)C1CC1)Nc1ccccc1,-1,-27,-12,-1,5,97*
CC(=O)N1CCc2cc(S(=O)(=O)NC(Cc3ccccc3)C(=O)Nc3cc(C)ccn3)ccc21 (stereo not given),38*,-8,2,-2,1,3
Nc1cc(=O)[nH]c(SCCSc2ccc(F)cc2)n1,4,-21,3,-1,3,-5
Cc1ccc(C(=O)CSc2nc(N)cc(=O)[nH]2)cc1,26,0,13,-2,13,99*
Cc1ccc(C)c(C(=O)CSc2nc(N)cc(=O)[nH]2)c1,18,-7,11,0,0,-1
Nc1cc(=O)[nH]c(SCC(=O)c2ccc(F)cc2)n1,17,-11,-5,-2,2,98*

# Three compounds from above, sorted by their value in UUG fidelity, low to high.
SMILES,NALP1 inh,UUG fidelity,MC4R antag cAMP,MC4R ag barr,HDAC3 inh,ALR inh
S=C(NN=C(C1CC1)C1CC1)Nc1ccccc1,-1,-27,-12,-1,5,97*
Nc1cc(=O)[nH]c(SCC(=O)c2ccc(F)cc2)n1,17,-11,-5,-2,2,98*
Cc1ccc(C)c(C(=O)CSc2nc(N)cc(=O)[nH]2)c1,18,-7,11,0,0,-1

# Screening results: PubChem, several laboratories
